For assay [1], the system named is E. coli K12. The experiment in a line: Bacterial growth inhibition with PNA targeted against the LacZ gene, M9 minimal broth with lactose. The assay is classed as cell-based, Escherichia coli.
Assay [2] deals with E. coli K12. The experiment in a line: Bacterial growth inhibition with PNA 249 (without peptide, FtsZ) and peptide 250, 100% Mueller-Hinton broth (Table 18). It is filed as cell-based, Escherichia coli.

Take H-KFFKFFKFFK-ado-TTC AAA CAT AGT-NH2: the Bacterial growth inhibition entry is on record as “− (Lagphase extended less than five times;)” in the assay on E. coli K12 [1] (PNA 100 nM, 5 × 10^4 bacteria/ml); “− (Lagphase extended less than five times;)” with E. coli K12 [1] (PNA 100 nM, 5 × 10^5 bacteria/ml, M9 minimal broth with lactose); “− (Lagphase extended less than five times;)” in the assay with E. coli K12 [1] (PNA 300 nM, 5 × 10^4 bacteria/ml); “(+) (Significantly extended lagphase, (more than five times))” with E. coli K12 [1] (PNA 750 nM, 5 × 10^4 bacteria/ml); “− (Lagphase extended less than five times;)” in the assay on E. coli K12 [1] (PNA 750 nM, 5 × 10^5 bacteria/ml); “− (Lagphase extended less than five times;)” in the assay with E. coli K12 [1] (PNA 1500 nM, 5 × 10^5 bacteria/ml).
Turning to H-ado-TTC AAA CAT AGT-NH2, the Bacterial growth inhibition result in the assay with E. coli K12 [2] (conc. in wells 250 nM, No of bacteria/ml 8) is “− (Lagphase extended less than five times;)”; in the assay on E. coli K12 [2] (conc. in wells 250 nM, No of bacteria/ml 17) it was “− (Lagphase extended less than five times;)”; in the assay with E. coli K12 [2] (conc. in wells 250 nM, No of bacteria/ml 170), “− (Lagphase extended less than five times;)”; in the assay on E. coli K12 [2] (conc. in wells 500 nM, No of bacteria/ml 8), “− (Lagphase extended less than five times;)”; with E. coli K12 [2] (conc. in wells 500 nM, No of bacteria/ml 17), “− (Lagphase extended less than five times;)”; in the assay on E. coli K12 [2] (conc. in wells 500 nM, No of bacteria/ml 170) it was “− (Lagphase extended less than five times;)”. Besides, the Bacterial growth inhibition result in the assay with E. coli K12 [2] (conc. in wells 750 nM, No of bacteria/ml 8) is recorded as “− (Lagphase extended less than five times;)”; in the assay on E. coli K12 [2] (conc. in wells 750 nM, No of bacteria/ml 17) it was “− (Lagphase extended less than five times;)”; in the assay on E. coli K12 [2] (conc. in wells 750 nM, No of bacteria/ml 170) it was “− (Lagphase extended less than five times;)”; in the assay with E. coli K12 [2] (conc. in wells 1000 nM, No of bacteria/ml 8) it was “− (Lagphase extended less than five times;)”; in the assay with E. coli K12 [2] (conc. in wells 1000 nM, No of bacteria/ml 17), “− (Lagphase extended less than five times;)”; in the assay with E. coli K12 [2] (conc. in wells 1000 nM, No of bacteria/ml 170) it was “− (Lagphase extended less than five times;)”. The Bacterial growth inhibition entry in the assay on E. coli K12 [2] (conc. in wells 1500 nM, No of bacteria/ml 8) is “− (Lagphase extended less than five times;)”; in the assay with E. coli K12 [2] (conc. in wells 1500 nM, No of bacteria/ml 17), “− (Lagphase extended less than five times;)”; with E. coli K12 [2] (conc. in wells 1500 nM, No of bacteria/ml 170), “− (Lagphase extended less than five times;)”; in the assay with E. coli K12 [2] (conc. in wells 2000 nM, No of bacteria/ml 8), “− (Lagphase extended less than five times;)”; in the assay on E. coli K12 [2] (conc. in wells 2000 nM, No of bacteria/ml 17) it was “− (Lagphase extended less than five times;)”; in the assay with E. coli K12 [2] (conc. in wells 2000 nM, No of bacteria/ml 170), “− (Lagphase extended less than five times;)”. Besides, the Bacterial growth inhibition result in the assay with E. coli K12 [2] (conc. in wells 2500 nM, No of bacteria/ml 8) is given as “− (Lagphase extended less than five times;)”; in the assay on E. coli K12 [2] (conc. in wells 2500 nM, No of bacteria/ml 17), “− (Lagphase extended less than five times;)”; in the assay on E. coli K12 [2] (conc. in wells 2500 nM, No of bacteria/ml 170), “− (Lagphase extended less than five times;)”.

The record behind these values is US20030199431A1, “Modified peptide nucleic acid (PNA) molecules” (priority 1999, published 2003).
